Assay results: patent publication US5908868A, “Retinol derivatives useful for enhancing immune response” (priority 1995, dated 1999)

Columns and labels:
thymocytes = test: Proliferation of anti-CD3e activated thymocytes in serum-free medium; format: cell-based, BALB/c mouse
Protocol: FIG. 14A: Purified BALB/c thymocytes were activated with immobilized anti-CD3e antibody and cultivated for four days in ITLB medium with or without retinol (3×10^-6 M), 14HRR (6×10^-7 M) (fresh 14HRR was added every 12 hours), human serum (3%) or FCS (10%) at the cellular densities shown. Proliferation was assayed by tritiated thymidine incorporation into cellular DNA. The SDs were below 20%.
FIG. 14B: BALB/c thymocytes (10^6 /ml) were added to microtiter plates coated with titrated amounts of anti-CD3e antibody with […] retinol or without, as indicated. Proliferation was measured in hexaduplicate wells on day 3 by ^3 H thymidine incorporation assay.
FIG. 14C: BALB/c thymocytes (3×10^6 /ml) were activated with anti-CD3e mAb as FIG. 1A. The total number of viable cells was determined by counting trypan blue-excluding cells, and those of blast cells by counting viable large cells in six replicate wells. […]
Purified thymocytes (5×10^5 cells/well) were stimulated by TCR crosslinking with immobilized anti-CD3e antibody (FIG. 15A) or 0.4 μg/ml Con A (FIG. 15B) in serum-free ITLB medium. […] DNA synthesis was measured after 72 hours by tritiated thymidine uptake as described. […]
Thymuses of 3 to 6-week-old BALB/c mice were teased in serum-free RPMI medium supplemented with 1% BSA, 10^-6 M linoleic acid and antibiotics. […] Cell viability was evaluated by trypan blue dye exclusion. […]

RXR receptor = settings: (48,49); cited from earlier work

Compound	effectiveness relative to all-trans retinol (thymocytes)	activation of RXR receptor (RXR receptor)
CC1=C(/C=C/C(C)=C/C=C/C(C)=C/C(=O)O)C(C)(C)CCC1 [all-trans retinoic acid]	completely inactive	
CC1=C(/C=C/C(C)=C\C=C\C(C)=C\C(=O)O)C(C)(C)CCC1 [9-cis retinoic acid]		found to activate the RXR receptor
